This is a selection; strong and weak results do not stand in their true shares. Activity calls are given as the source filed them.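 How the source made its calls: active means inhibition at least 30% at 10 µM, raw YFP signal under a set limit, fluorescence ratio 0.5 to 1.5; inactive means the rest.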

Sequences of proteins named here, by UniProt entry; tags and fusion partners are left off. Residues count along the entry.
UniProt Q9P0U3, 419-644 limits assumed: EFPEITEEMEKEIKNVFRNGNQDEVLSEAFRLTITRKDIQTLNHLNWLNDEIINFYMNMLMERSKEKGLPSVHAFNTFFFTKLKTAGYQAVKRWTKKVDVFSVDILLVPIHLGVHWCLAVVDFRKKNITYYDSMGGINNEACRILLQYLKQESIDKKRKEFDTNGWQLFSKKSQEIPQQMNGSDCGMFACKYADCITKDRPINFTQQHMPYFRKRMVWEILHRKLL

The target of the test is Sentrin-specific protease 1 (Homo sapiens) (UniProt Q9P0U3). Put plainly: human SENP1 catalytic domain inhibitors, primary screen, biochemical, FRET, uHTS (AID 624204).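 Further: 0% = enzyme with DMSO and 100% = no enzyme wells.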 Particulars: recombinant SENP1 catalytic domain, CyPet-SUMO1-YPet FRET cleavage; at 10 µM; hits give high values.
Take `CCC(=O)N(c1ccccc1)C1(COC)CCN(CCn2nnn(CC)c2=O)CC1`: the inhibition is inactive: 0.832%.

Consider `CCC(=O)N(c1ccccc1)C1(COC)CCN(CCc2cccs2)CC1`, for which the inhibition is inactive: -0.695%.

The values are drawn from PubChem BioAssay AID624204 (Sanford-Burnham Center for Chemical Genomics, 2012).
